According to EP0587106B1, “Compositions containing lipophilic salts having neutron activable cations” (VECTORPHARMA INTERNATIONAL S.p.A., priority 1992, dated 1994):

Experiment: Solubility test at 24 hours, determined via complex-formation with xylenol orange

| SMILES | solubility at 24 h (pH 1.2, Solubility, pH=1.2, lipophilic salt as it is) [µg/mL] | solubility at 24 h (pH 3, Solubility, pH=3.0, lipophilic salt as it is) [µg/mL] | solubility at 24 h (pH 5.2, Solubility, pH=5.2, lipophilic salt as it is) [µg/mL] | solubility at 24 h (pH 7, Solubility, pH=7.0, lipophilic salt as it is) [µg/mL] | Solubility (pH=1.2, lipophilic salt as it is, 1440 min) [µg/mL] | Solubility (pH=3.0, lipophilic salt as it is, 1440 min) [µg/mL] | Solubility (pH=5.2, lipophilic salt as it is) [µg/mL] | Solubility (pH=7.0, lipophilic salt as it is) [µg/mL] |
| --- | --- | --- | --- | --- | --- | --- | --- | --- |
| CCCCCCCCCCCC(=O)O [Samarium laurate, samarium laurate] | 220 | 47 | < 2 | < 2 |  |  |  |  |
| CCCCCCCCCCCC(=O)O [Ytterbium laurate, ytterbium laurate] |  |  |  |  | 430 | 56 | <2 | <2 |
